Drawing on patent publication US20220267379A1, “NOVEL INHIBITORS OF […] AND USES THEREOF” (Ecole Polytechnique Federale de Lausanne (EPFL), priority 2019, published 2022), this text covers Ki for six substances.

Chains of the proteins cited; added tags and fusions are not shown. Residues count along the entry.
UniProt Q9Y337, 23-293 limits assumed: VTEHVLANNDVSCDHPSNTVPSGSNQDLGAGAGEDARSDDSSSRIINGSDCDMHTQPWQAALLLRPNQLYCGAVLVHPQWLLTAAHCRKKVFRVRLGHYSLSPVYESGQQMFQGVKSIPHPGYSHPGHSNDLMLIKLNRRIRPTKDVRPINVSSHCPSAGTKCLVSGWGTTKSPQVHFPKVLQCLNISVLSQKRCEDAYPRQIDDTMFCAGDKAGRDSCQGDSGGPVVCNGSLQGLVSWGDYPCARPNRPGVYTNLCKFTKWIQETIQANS
UniProt P49862, 30-253 limits assumed: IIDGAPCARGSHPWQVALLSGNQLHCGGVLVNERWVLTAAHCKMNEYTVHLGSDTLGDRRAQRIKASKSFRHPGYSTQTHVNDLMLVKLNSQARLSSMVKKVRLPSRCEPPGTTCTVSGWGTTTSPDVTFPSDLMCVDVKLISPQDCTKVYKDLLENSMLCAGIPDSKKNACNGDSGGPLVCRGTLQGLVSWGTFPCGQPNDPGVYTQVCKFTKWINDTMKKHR

Like-named read-outs stand apart in the source and are kept apart here. A value given as a limit tells only on which side of the number the result lay.

The target in assay [1] is T1, hKLK5 (Homo sapiens, UniProt Q9Y337). Description: Ki [nM]. An excerpt:
Table printed on a drawing sheet, Figure 3a (continued)
(§1) Head of the field: Ki [nM]
(§2) (a) Sequences found after selections against hKLK5. (b) Sequences found after selections against hKLK7.
First copying reader's note: Continued from the sheet before; the linker used for cyclization is drawn above the table as a structure (Br-CH2-C(=O)-CH2-Br), and each residue of the 18-residue sequence stands in its own column.

In a further assay the target is hKLK7 (Homo sapiens, UniProt P49862). Description: Ki [nM].
From the text: Table printed on a drawing sheet, Figure 3b (continued)
as §1, §2
First copying reader's note: Continued from the sheet before; the sequences are printed in three consensus groups (rows 2-6, 7-15, 16-19) under a drawn Br-CH2-C(=O)-CH2-Br linker, and several residues on dark shading cannot be read in the scan.`
Where the first naming reader finds the target: description_of_the_figure: (b) Sequences found after selections against hKLK7.

The target of assay [2] is T1, hKLK5.

Turning to “A C T R E Y N P Q C A N P Q C L C H [compound 005]”, the Ki (usually a dissociation constant, usually derived from enzyme kinetics or from competition with a known ligand) at hKLK5 [1] is 28 nM. “F C L W P W C Q P P E A C P S Q C E [compound 012]”: the Ki on hKLK7 is more than 1000 nM. On hKLK5 [2], “G C T R Q V C Q Q T P A C P S A C N [compound 001]” yielded a Ki of 7 nM. For “G C T R Q W P C D S V P G S C T C V [compound 004]”, on hKLK5 [1], the affinity, expressed as Ki, was 2.7 nM. In other words, the single-digit nanomolar range. Still for that read-out and setting: with “M C S R Q W D P S L C C P Q R T C P [compound 006]” the figure was 24 nM. On hKLK7, “Q C ? I T Y Q F C T H D R Y G C C S [compound 010]” returned a Ki of 96 nM.
